Here are results for one substance from patent publication US20100129370A1, “Trefoil Factors and Methods of Treating Proliferation Disorders Using Same” (priority 2004, published 2010).

The subject of the test is CEACAM6 gene. Kind of test: CEACAM6 luciferase reporter assay in MCF-7 cells. It is filed as cell-based, human. As to conditions: MCF-7 co-transfected, expression plasmid alone. An excerpt:
c-Myc episode tagged human TFF3 expression vector pIRESneo3-TFF3-Myc was constructed as follows: the human TFF3 cDNA was amplified by PCR using the primer set, 5′-ATGGCTGCCAGAGCGCTCTGC-3′ (sense) (SEQ ID NO:39) and 5′-AAGGTGCATTCTGCTTCCTGCAG-3′ (antisense) (SEQ ID NO:40) and cloned into pIRESneo3 vector (Invitrogen). A sequence coding for 2 copies of c-Myc tag EQKLISEEDL (SEQ ID NO:41) was inserted in frame with the last amino acid of TFF3. The C57F mutant expression vector of TFF3, pIRESneo3-TFF3-C57F-Myc, was similarly made by using the same sense primer and an antisense primer of 5′-AAGGTGAATTCTGCTTCCTGCAGGG-3′ (SEQ ID NO:42).
The human serum albumin cDNA was also similarly cloned into pIRESneo3 vector with 2 copies of the c-Myc-tag at its C-terminal using primers: 5′-ATGAAGTGGGTAACCTTTATTTCC-3′ (sense) (SEQ ID NO:43) and 5′-AAGCCTAAGGCAGCTTGACTTG-3′ (antisense) (SEQ ID NO:44). […]
MCF-7 cells were co-transfected with CEACAM6 luciferase report plasmid as well as expression plasmids of TFF3, c-Myc-Tagged (TFF3-tag), N-terminal deleted TFF3 (TFF3-Delta-1 and -2), TFF3-46R-47R and TFF3-C57F mutant, and TFF3-C57F-hSA (human serum albumin) fusion protein by Saint Mix transfection reagent as well as the empty vector as control. Luciferase activity was measured using a kit (Promega). […]

In the case of “hSA: human serum albumin expressed from pIRESneo3 vector with c-Myc tags”, the “effect on CEACAM6 expression” value is reported as “little effect”.
